Laboratory results taken from US20220257631A1, “THERAPEUTIC RNA FOR OVARIAN CANCER” (BIONTECH SE, priority 2019, published 2022).

How the values were obtained:
[1] = mouse, in vivo, iv
[2] = DOTMA biodistribution, LC/MS

CCCCCCCC/C=C\CCCCCCCCOCC(C[N+](C)(C)C)OCCCCCCCC/C=C\CCCCCCCC (stereo not drawn) [DOTMA, 1,2-di-O-octadecenyl-3-trimethylammonium propane]
Time to delivery to the spleen [1]: in less than one hour | DOTMA in all other organs relative to spleen concentration ([2]; eight weekly injections): not more than 5% | DOTMA concentration relative to maximum ([2]; liver and spleen, within 20 days): about 50%
